Data from PMC13289212, “HIVIL: A human in vitro inflammatory liver model recapitulates immune-associated drug effects with high predictivity” (NAM journal, 2025).

System: IL-6
Test: Optimization of stimulator and duration: IL-6 production
Type: cell-based
Details: primary human KCs and iKCs
Text: Neither LPS nor IL-2 stimulated IL-6 production from PHHs and iHeps (Fig. 1g). LPS, but not IL-2, stimulated IL-6 production in iKCs and PHKCs, in mono-culture and co-culture with iHeps (Fig. S2a). […] Therefore, LPS was used for subsequent experiments to stimulate inflammation. […] In order to evaluate the time-dependent inflammatory responses, we measured interleukin-6 (IL-6) production within 48 hr post-LPS treatment. IL-6 was only produced at 24 hr and 48 hr, by 10.15- and 4.70-fold compared to vehicle control respectively, but not at 2 hr and 6 hr (Fig. S2b). The difference between 24 hr and 48 hr was non-significant (p=0.41), indicating IL-6 response plateaus after 24 hr.

For interleukin-2 [IL-2], the “stimulation of cytokine production” value was “failed to stimulate”.
